“And” between values parts separate entries of the source, which are not always exact repeats. Identical values can stand only once.

In assay [1] the target is cation-independent mannose-6-phosphate receptor (CIMPR). Put plainly: M6P receptor (CIMPR) plate binding assay.
Assay [2] has the same target. In words: CIMPR affinity chromatography, different production batches.
Assay [3] has the same target. In words: cell-based or functional assay.
For assay [4] the target is unchanged. Put plainly: CIMPR binding (method not given).
Assay [5] has the same target. Put plainly: CIMPR affinity chromatography, fractions assayed for GAA activity.
Assay [6] has the same target. In words: CIMPR affinity chromatography, elution with free M6P gradient, GAA activity.

Consider “ATB200 rhGAA (recombinant human acid α-glucosidase produced in CHO cell line GA-ATB-200) (from UniProt P10253 57-952) (enzyme)”, for which the Kd in assay [1] is 2 to 4 nM; in assay [4], 2.7 nM and 2.9 nM. The same substance gave a percent CIMPR receptor binding in assay [2] of 70%. The same substance registered a concentration saturating cellular receptors, fibroblast internalisation in assay [3] of 20 nM.

Regarding “Lumizyme® (alglucosidase alfa, conventional rhGAA) (from UniProt P10253 57-952) (enzyme)”, the percent of rhGAA not bound to CIMPR column in assay [5] stood at 78%. In assay [3], this substance yielded a concentration saturating cellular receptors, fibroblast internalisation of 250 nM and an uptake efficiency constant (Kuptake), fibroblast internalisation of 56 nM. In addition, the percent of rhGAA bound to CIMPR column (eluted with M6P) in assay [6] is 22%.

With “Myozyme® (alglucosidase alfa, conventional rhGAA) (from UniProt P10253 57-952) (enzyme)”, the percent of rhGAA not bound to CIMPR column in assay [5] worked out at 73%. The substance also showed a percent of rhGAA bound to CIMPR column (eluted with M6P) in assay [6] of 27%.
